Test results: ChEMBL document CHEMBL4823262, “Discovery of a Vitamin D Receptor-Silent Vitamin D Derivative That Impairs Sterol Regulatory Element-Binding Protein In Vivo” (J Med Chem, 2021)

Target: T1, Sterol regulatory element-binding protein cleavage-activating protein (Homo sapiens) (UniProt Q12770)
T1 sequence (whole entry): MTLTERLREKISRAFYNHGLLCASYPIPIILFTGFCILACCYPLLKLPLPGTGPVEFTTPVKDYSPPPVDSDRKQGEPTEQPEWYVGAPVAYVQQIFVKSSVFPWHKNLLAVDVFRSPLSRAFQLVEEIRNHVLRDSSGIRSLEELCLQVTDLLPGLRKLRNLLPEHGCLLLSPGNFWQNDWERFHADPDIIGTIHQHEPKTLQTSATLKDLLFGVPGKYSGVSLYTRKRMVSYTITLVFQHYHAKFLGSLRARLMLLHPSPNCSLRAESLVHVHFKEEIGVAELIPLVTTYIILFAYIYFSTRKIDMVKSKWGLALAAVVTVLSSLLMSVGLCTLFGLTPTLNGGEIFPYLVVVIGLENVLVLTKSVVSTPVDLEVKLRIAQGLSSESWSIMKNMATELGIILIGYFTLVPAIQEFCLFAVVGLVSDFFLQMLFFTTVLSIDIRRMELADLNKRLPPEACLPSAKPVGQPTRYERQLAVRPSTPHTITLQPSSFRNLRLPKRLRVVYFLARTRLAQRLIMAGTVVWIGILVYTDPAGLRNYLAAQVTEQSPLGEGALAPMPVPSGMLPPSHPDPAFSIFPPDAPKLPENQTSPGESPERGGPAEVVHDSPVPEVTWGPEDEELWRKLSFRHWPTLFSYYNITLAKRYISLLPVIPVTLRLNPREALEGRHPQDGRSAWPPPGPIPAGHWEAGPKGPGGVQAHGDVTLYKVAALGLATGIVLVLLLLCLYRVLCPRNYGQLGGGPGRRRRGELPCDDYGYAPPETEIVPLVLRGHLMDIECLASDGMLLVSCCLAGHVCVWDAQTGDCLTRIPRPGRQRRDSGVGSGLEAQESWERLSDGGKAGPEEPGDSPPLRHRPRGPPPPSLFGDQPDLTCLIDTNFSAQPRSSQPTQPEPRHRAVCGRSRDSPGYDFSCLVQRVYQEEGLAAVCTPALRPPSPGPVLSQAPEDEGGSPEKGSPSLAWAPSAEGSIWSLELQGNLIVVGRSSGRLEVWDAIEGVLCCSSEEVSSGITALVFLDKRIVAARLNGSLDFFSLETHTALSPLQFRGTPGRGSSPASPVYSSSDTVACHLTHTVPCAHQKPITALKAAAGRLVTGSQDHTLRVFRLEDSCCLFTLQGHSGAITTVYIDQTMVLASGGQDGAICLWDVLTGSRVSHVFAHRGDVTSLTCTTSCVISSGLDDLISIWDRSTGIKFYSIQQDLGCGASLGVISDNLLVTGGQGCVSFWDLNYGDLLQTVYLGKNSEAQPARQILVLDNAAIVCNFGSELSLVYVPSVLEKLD
Assay: Inhibition of FLAG-tagged SCAP (unknown origin) expressed in CHO-K1 cells assessed as reduction in SCAP protein level at 5 uM after 24 hrs by Western blotting analysis
Format: cell-based

C[C@H](CCC(F)(F)C(C)(C)O)[C@H]1CC[C@H]2/C(=C/Cn3nnnc3-c3ccccc3)CCC[C@]12C
inhibition: Active

Calls of active or inactive are those of the source. No cut-off for these calls is given here.
